Biological target: endothelin receptor A (human) (UniProt P25101)
Assay: cell-based or functional assay

Amino acid sequences for entries named in this document (tags omitted). Residues count along the entry.
UniProt P25101, 21-427: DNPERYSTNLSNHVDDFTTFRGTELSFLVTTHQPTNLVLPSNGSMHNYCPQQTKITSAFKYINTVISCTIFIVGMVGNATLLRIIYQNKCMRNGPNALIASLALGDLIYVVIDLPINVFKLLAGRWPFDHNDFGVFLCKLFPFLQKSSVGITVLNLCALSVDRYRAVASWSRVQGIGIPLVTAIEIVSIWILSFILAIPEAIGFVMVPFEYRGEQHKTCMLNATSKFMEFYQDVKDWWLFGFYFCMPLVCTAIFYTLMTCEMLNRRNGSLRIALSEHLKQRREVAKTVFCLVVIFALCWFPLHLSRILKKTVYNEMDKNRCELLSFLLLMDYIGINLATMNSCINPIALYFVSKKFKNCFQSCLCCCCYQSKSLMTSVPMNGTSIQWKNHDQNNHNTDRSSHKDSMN

“endothelin-1 (from UniProt P05305 53-73) (peptide)” showed a contraction of collagen lattices with human uterine smooth muscle cells (relative lattice area, 100 nM ET-1) (% of lattices not treated with ET-1) of 78.
